Values quoted from earlier work in patent US20130209578A1, “Combinatory Cancer Treatment” (UNIVERSITE DE MONTREAL, priority 2010, published 2013).

Tested on: acute myeloid leukemia (AML)
Conditions: ribavirin monotherapy; cited from earlier work

NC(=O)c1ncn([C@@H]2O[C@H](CO)[C@@H](O)[C@H]2O)n1 [ribavirin, 1-[(2R,3R,4S,5R)-3,4-dihydroxy-5-(hydroxymethyl)oxolan-2-yl]-1H-1,2,4-triazole-3-carboxamide]
treatment-related toxicities: no treatment-related toxicities are observed
